From patent publication US8959984B2, “Proteome-wide quantification of small molecule binding to cellular target proteins” (priority 2007, dated 2015)

Amino acid sequences for entries named in this document (tags omitted). A change or cut given only in a name is not applied to a line headed by its entry.
UniProt Q14289, whole entry: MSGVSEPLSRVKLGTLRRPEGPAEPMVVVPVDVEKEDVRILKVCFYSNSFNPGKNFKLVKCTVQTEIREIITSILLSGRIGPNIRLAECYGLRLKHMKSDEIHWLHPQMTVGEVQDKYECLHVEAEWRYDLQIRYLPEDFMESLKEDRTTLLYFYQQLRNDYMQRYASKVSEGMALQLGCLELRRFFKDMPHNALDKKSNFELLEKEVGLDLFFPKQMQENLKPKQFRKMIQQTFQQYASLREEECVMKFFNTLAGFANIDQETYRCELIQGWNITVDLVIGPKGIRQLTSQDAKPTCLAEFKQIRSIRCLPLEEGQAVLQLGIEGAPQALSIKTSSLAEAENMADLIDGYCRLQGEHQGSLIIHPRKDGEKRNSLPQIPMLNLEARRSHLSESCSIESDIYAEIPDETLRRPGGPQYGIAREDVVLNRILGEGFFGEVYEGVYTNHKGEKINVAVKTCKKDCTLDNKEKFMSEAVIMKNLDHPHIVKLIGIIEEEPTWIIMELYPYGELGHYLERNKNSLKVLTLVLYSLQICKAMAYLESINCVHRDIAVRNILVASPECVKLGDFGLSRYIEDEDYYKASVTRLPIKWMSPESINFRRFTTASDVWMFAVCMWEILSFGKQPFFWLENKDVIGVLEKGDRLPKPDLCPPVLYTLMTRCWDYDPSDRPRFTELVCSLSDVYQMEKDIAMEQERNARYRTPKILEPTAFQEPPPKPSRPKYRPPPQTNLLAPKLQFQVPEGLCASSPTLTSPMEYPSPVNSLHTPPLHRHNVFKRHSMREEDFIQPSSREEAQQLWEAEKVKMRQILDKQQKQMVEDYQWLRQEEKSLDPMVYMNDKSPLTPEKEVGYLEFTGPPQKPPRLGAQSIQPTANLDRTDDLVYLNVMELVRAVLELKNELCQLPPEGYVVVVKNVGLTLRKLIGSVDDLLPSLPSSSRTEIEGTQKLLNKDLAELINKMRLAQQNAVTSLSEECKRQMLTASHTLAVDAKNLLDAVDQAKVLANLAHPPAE
UniProt Q8NFU5: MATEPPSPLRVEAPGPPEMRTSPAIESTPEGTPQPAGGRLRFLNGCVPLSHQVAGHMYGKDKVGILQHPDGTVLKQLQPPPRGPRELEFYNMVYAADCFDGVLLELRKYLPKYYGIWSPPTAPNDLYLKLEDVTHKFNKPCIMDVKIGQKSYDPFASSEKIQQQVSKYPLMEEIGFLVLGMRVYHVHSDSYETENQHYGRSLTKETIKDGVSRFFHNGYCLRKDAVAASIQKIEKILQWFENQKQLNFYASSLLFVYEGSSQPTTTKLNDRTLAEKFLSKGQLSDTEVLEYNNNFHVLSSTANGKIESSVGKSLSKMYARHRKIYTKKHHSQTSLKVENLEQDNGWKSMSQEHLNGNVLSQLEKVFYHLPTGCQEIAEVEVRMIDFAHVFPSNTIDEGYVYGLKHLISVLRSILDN
UniProt Q96BR1: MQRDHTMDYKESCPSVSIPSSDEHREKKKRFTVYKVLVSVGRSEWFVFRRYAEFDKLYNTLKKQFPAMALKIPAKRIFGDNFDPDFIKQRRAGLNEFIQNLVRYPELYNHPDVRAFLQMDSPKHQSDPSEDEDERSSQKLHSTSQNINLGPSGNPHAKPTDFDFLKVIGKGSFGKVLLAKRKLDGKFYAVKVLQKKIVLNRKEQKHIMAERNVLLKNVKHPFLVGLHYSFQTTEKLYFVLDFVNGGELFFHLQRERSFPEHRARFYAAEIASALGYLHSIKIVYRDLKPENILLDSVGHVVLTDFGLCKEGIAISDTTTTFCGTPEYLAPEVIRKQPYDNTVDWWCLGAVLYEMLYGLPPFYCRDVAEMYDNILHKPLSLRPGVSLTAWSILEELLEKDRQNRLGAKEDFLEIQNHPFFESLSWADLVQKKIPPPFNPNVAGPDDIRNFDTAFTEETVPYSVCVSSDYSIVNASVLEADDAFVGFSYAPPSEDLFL
UniProt Q9P0L2: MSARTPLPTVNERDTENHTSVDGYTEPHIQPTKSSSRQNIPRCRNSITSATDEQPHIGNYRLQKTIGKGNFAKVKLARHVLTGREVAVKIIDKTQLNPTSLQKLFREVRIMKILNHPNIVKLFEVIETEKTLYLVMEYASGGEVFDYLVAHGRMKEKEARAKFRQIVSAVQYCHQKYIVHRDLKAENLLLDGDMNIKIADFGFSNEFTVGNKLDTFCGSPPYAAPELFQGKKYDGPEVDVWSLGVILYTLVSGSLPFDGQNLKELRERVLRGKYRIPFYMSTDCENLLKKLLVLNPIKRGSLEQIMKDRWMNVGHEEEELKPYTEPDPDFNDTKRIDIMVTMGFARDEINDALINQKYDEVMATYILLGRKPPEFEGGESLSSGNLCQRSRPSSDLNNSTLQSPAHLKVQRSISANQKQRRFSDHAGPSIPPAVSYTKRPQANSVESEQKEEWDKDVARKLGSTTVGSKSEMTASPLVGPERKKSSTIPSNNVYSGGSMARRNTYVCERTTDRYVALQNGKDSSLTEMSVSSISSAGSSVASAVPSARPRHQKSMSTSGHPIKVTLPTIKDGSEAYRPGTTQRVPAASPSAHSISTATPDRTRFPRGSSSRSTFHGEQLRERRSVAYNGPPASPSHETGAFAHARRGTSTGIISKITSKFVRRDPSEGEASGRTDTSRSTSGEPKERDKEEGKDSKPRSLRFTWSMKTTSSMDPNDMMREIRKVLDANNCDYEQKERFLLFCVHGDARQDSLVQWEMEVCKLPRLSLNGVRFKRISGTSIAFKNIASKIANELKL

Key:
Test in all cases: Ki determination for immobilized VI16742: two consecutive incubations, control beads, ligand concentration and incubation time controls (Tables 7, 8)
Assay type in all cases: binding
[1] = molecular target: T1, cellular target proteins in HeLa cell lysate (Homo sapiens, UniProt P33981)
T1 sequence (P33981 1-857): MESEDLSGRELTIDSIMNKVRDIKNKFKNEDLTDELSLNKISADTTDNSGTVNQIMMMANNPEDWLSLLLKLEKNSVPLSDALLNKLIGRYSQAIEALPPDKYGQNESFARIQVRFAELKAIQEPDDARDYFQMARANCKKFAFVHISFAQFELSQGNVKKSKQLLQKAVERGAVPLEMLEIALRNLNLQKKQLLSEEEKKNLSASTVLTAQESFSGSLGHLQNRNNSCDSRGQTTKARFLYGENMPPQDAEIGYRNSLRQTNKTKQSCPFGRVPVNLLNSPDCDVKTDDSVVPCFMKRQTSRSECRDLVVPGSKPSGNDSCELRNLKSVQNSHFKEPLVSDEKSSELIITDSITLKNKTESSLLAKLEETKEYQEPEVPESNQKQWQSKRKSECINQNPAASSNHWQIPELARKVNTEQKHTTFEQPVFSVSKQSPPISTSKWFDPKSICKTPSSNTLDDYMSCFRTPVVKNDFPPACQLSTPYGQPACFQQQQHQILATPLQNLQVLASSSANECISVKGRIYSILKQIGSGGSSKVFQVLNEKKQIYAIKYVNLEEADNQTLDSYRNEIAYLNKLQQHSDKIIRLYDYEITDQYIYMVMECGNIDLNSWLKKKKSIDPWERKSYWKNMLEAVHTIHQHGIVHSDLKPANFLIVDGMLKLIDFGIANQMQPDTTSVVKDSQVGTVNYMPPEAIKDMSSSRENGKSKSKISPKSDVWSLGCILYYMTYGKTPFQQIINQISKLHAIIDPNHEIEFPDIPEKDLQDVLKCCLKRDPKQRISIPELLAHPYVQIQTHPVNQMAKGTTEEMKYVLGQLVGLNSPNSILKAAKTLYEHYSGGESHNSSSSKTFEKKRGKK

[2] = molecular target: cellular target proteins in HeLa cell lysate (Homo sapiens, UniProt Q14289)
[3] = molecular target: cellular target proteins in HeLa cell lysate (Homo sapiens, UniProt Q8NFU5); conditions: Ki (VI16742), IPMK IPI00168907
[4] = molecular target: cellular target proteins in HeLa cell lysate (Homo sapiens, UniProt Q96BR1); conditions: Ki (VI16742), SGK3 IPI00655852
[5] = molecular target: T2, cellular target proteins in HeLa cell lysate (Homo sapiens, UniProt Q96S44); conditions: Ki (VI16742), PRPK (TP53RK) IPI00290305
T2 sequence (Q96S44 1-253): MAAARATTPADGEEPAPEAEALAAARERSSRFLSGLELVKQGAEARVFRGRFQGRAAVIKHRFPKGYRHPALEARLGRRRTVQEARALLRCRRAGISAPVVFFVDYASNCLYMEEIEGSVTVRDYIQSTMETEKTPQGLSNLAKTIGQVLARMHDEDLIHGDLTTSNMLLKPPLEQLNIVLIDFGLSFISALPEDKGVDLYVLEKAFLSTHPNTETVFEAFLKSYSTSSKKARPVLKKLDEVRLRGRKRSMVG

[6] = molecular target: T3, cellular target proteins in HeLa cell lysate (Homo sapiens, UniProt Q9NPF4); conditions: Ki (VI16742), OSGEP IPI00015809
T3 sequence (Q9NPF4 1-335): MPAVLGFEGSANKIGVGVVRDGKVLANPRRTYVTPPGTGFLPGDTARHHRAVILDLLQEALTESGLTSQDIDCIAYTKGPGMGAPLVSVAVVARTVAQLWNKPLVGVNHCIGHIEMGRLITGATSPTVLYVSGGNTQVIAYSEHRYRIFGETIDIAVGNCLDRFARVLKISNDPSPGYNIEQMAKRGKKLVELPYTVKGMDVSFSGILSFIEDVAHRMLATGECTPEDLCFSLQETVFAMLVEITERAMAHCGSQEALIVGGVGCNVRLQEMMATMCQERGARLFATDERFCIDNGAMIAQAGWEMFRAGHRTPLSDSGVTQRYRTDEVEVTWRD

[7] = molecular target: cellular target proteins in HeLa cell lysate (Homo sapiens, UniProt Q9P0L2); conditions: Ki (VI16742), MARK1 IPI00185037

## CC(C)n1c(=O)ccc2cnc(Nc3ccc(OCCN)cc3)nc21 [V16742]
[1]
  Ki: 18.4 µM
[2]
  Ki: 25.7 µM
[2]; Ki (VI16742), PYK2 (PTK2B) IPI00029702
  Ki: 26.7 µM
[3]
  Ki: 18.6 µM
[4]
  Ki: 17.6 µM
[5]
  Ki: 19 µM
[6]
  Ki: 14 µM
[7]
  Ki: 7.45 µM

Like-named read-outs stand apart in the source and are kept apart here.
